In patent US20230159489A1, “PHD INHIBITOR COMPOUNDS, COMPOSITIONS, AND USE” (Akebia Therapeutics, Inc., priority 2020, published 2023) one finds Km data, which are given here for one compound.

Amino acid sequences for entries named in this document (tags omitted). A change or cut given only in a name is not applied to a line headed by its entry.
UniProt Q9GZT9: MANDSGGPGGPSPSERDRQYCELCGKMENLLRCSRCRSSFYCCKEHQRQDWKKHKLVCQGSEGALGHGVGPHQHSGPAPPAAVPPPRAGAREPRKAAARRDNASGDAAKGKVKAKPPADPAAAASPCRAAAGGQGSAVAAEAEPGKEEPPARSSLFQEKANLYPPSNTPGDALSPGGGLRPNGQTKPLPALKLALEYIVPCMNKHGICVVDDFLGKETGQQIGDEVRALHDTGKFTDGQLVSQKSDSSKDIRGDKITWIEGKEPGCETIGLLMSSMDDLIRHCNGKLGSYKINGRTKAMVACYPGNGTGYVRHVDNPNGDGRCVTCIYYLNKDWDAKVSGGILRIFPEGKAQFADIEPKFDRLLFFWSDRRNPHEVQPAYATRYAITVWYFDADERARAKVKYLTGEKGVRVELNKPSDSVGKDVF

This assay deals with full-length human PHD2 (Homo sapiens, UniProt Q9GZT9). The assay can be described thus: TR-FRET assay, enzymatic IC50 against PHD2. As to conditions: read-out: Km of 2-OG for PHD2. Background: In TR-FRET formats the signal depends on donor and acceptor labels being close together.

By Km is commonly meant the substrate concentration at which the rate is half of its maximum. As to `O=C(O)CCC(=O)C(=O)O` [Compound 2-OG, 2-oxoglutarate, reference compound], the Km is 0.0226 µM.
